The text below walks through data of US5455161A, “Method for the monitoring of multiple anticancer drug resistance” (priority 1992, dated 1995).

This assay concerns T19 cells. Nature of the assay: ODC (ornithine decarboxylase activity) assay of drug resistance, multidrug resistant T19 cells. The format is cell-based, Chinese hamster. Particulars: exposure 6, 18 and 48 hours. The protocol: The protein determinations were carried out according to the method of Bradford (Anal.Biochem. 72, 248-54, 1976), using lysozyme, triple crystallization and dialysis, as a standard.
Monolayers of parental AA8 and multidrug resistant T19 cells grown for 4 days at 37° C., were exposed to various concentrations of the antimitotic agent colchinine, for 6 hours, 18 hours and 48 hours and then the activity of ornithine decarboxylase was determined.
In the same manner, this assay was tested with various anticancer drugs of various structure and distinct mechanisms of action. The following cytotoxic agents were tested: vinca alkaloids, anthracyclines, epipodophyllotoxins, actinomycin D and antifolates.

In the case of `COc1cc2c(c(OC)c1OC)-c1ccc(OC)c(=O)cc1[C@@H](NC(C)=O)CC2` [Colchicine], the “ornithine decarboxylase activity with increased drug concentrations” value is on record as “dose-dependent decrease”.
